# Assay results reported in patent US11504362B2, “Liquid dosage forms to treat cancer” (Exelixis, Inc., priority 2017, dated 2022).
# Experiments:
# [1] = male, human, in vivo
# clinical = settings: male, human, in vivo, t1/2
structure (smiles),measurement,setting,value
"COc1cc2nccc(Oc3ccc(NC(=O)C4(C(=O)Nc5ccc(F)cc5)CC4)cc3)c2cc1OC [XL184, N-(4-{[6,7-bis(methyloxy)quinolin-4-yl]oxy}phenyl)-N′-(4-fluorophenyl)cyclopropane-1,1-dicarboxamide]",kel,[1],0.00712 h⁻¹
same,half-life,clinical,102 h
